Target: E. coli MTAN (Escherichia coli, UniProt P0AF12)
Experiment: Inhibition of E. coli MTAN (slow-onset inhibition, spectrophotometric assay)
Type: biochemical
Conditions: initial inhibition constant

Amino acid sequences for entries named in this document (tags omitted). A change or cut given only in a name is not applied to a line headed by its entry.
UniProt P0AF12: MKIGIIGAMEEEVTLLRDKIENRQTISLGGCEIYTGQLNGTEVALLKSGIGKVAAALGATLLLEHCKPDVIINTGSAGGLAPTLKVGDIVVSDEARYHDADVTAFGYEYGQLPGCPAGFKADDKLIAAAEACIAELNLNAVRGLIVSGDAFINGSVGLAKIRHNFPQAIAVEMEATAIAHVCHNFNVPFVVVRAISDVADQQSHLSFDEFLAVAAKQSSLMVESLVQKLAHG

CSC[C@H]1CN(Cc2c[nH]c3c(N)ncnc23)C[C@@H]1O [Compound 52, (3R,4S)-1-[(9-Deazaadenin-9-yl)methyl]-3-hydroxy-4-(methylthiomethyl)pyrrolidine]
Ki: 0.017 ± 0.002 nM

Reference: patent US8173662B2, “Fused pyrimidines as inhibitors of nucleoside phosphorylases and nucleosidases” (Industrial Research Limited, priority 2002, dated 2012)
